Species on record: Homo sapiens
Assay: Selectivity ratio of IC50 for full length recombinant human GST-tagged DYRK1B expressed in baculovirus expression system to IC50 for recombinant human N-terminal His6-tagged DYRK1A expressed in Escherichia coli BL21(DE3)

Ratio IC50 | Compound
27 | O=C(Cc1ccc(F)cc1)Nc1cncc(-c2cc(-c3cccnc3)cs2)c1
24 | O=C(Nc1cncc(-c2cc(-c3cccnc3)cs2)c1)C1CC1
